Article PMC7010297, “How the initiating ribosome copes with ppGpp to translate mRNAs” (PLoS Biology, 2020)

Biological target: T1, IF2-bound 30S IC (Escherichia coli, UniProt P0A705)
T1 construct: 6xHis (N); made in house
Assay: 30S IC formation by MST, guanosine nucleotide titration
Type: binding
Conditions: 30S IC programmed with mMF1; read-out: KD of GTP for the 30S IC
Excerpt: To monitor the interaction of initiator tRNA and 30S ribosomal subunits, we used Microscale Thermophoresis (MST) with a fluorescently labelled initiator tRNA (Bpy-tRNAi) (Fig 1B). MST allows to measure fluorescence in a constrained space. Changes on the readout derive from molecular drifts resulting from small thermal equilibrium perturbations. Upon equilibrium perturbations, the patterns of Bpy-tRNAi migration away from the observation space are related to bound and unbound states (Fig 1B). […] On the contrary, a decrease in thermophoresis indicated the dissociation of Bpy-tRNAi. The relation between fluorescence measured at both equilibriums (Ff to Fi, after and prior to the perturbation, respectively) as a function of ligand concentration allowed to determine dissociation constants of the interaction (Fig 1C).
Continuous lines indicate nonlinear regression fittings with a quadratic equation. Three measurements were performed; mean and standard deviation are plotted (S1 Data). […] (D) Formation of 70S IC as measured by Bpy-tRNAi accommodation in the P site of the ribosome; 0.1 μM 30S ICs were formed with Bpy-tRNAi and rapidly mixed with 0.3 μM 50S subunits on a stopped-flow apparatus as described in [14]. […]
MST was calculated from the respective fluorescence time dependencies (S3 Fig). […]

SMILES: Nc1nc2c(ncn2[C@@H]2O[C@H](COP(=O)(O)OP(=O)(O)OP(=O)(O)O)[C@@H](O)[C@H]2O)c(=O)[nH]1 [GTP, guanosine triphosphate]
- Kd: 650 ± 50 nM
